According to US20240131004A1, “FUNCTIONALIZED 1,3-BENZENE DIOLS AND THEIR METHOD OF USE FOR THE TREATMENT OF INFLAMMATION AND PAIN” (KANNALIFE SCIENCES, INC., priority 2021, published 2024):

System: hippocampal cultures
Experiment: Alamar Blue cellular viability in hippocampal cultures, reversal of LPIA toxicity
Type: cell-based, rat
Details: 1 nM LPIA
Excerpt: Because the scope of the anti-inflammatory actions of the 1,3-benzene diols included the central nervous system as well, hippocampal cultures were also employed as they express both mNCX-1 and GPR55, the two targets that mediate protection and inflammation, respectively. […] Poly-L-lysine-coated plates (BD Biosciences, Franklin Lakes, NJ) were used because of the preferential adherence and survival of neurons on this matrix support.
At the conclusion of each experiment, sister cultures to those assessed by image analysis were evaluated with either a fluorescent dye-based assays for neuronal viability (6-carboxyfluorescein diacetate, CFDA) or with viability dye Alamar Blue. The preferred dye was Alamar Blue as this assay of viability could be conducted and then the dye washed off the cultures for subsequent fixation and follow-up immunocytochemical assays. […] In addition, a portion of the reductive conversion of resazurin to the highly fluorescent resorufin in the Alamar Blue reagent is attributable to the action of mitochondrial reductases. Because of the need for enhanced sensitivity, the Alamar Blue assay was predominantly used for these studies. […]
On every plate, wells without cells were used to provide a blank reading that was used to subtract background fluorescence. […] Fluorescence was measured at an excitation of 530 nm and an emission of 590 on a Cytofluor plate reader. […]

“lysophosphatidylinositol arachidonate [LPIA]” was tested, and the “Effect of LPIA on cellular viability of hippocampal cultures” value was “toxicity”.
